Our source for the EC50 values is ChEMBL document CHEMBL2069256, “Development of Toxoplasma gondii calcium-dependent protein kinase 1 (TgCDPK1) inhibitors with potent anti-toxoplasma activity” (J Med Chem, 2012).

Each structure is given as a SMILES string.

The experiment has as its system Toxoplasma gondii. Description: microbe, parasite or virus in culture. The conditions noted are these: 44 h.

In general, EC50 refers to the concentration giving half of the maximal effect. In the case of `COc1ccc2cc(-c3nn(CC4CCNCC4)c4ncnc(N)c34)ccc2c1`, the EC50 amounted to 410 nM. That is a sub-micromolar value.
